# Ab-14 heavy chain CDR variants: yeast mating affinities

All variants were tested on one target, the spike HR2 peptide PDVDLGDISGINAS (SARS-CoV-2).

Parent scFv Ab-14: VH joined to VL by a (GGGGS)3 linker. Changes lie in the heavy chain CDRs alone.
VH: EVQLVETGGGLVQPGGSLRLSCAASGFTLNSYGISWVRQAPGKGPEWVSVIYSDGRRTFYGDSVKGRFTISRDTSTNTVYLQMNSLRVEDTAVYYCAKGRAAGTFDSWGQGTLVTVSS
VL: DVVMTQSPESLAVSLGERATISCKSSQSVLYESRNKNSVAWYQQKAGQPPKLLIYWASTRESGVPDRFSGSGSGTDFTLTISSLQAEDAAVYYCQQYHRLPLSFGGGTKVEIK

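Phage display of a naive human antibody library on the peptide gave the parent. Designed CDR sequences, proposed from the first random library and measured here. Several design methods are mixed in this list. The assay is AlphaSeq: two haploid yeast populations carry antibody and antigen on their surface. Mating (16 h, 30 °C) was followed by selection of diploids and sequencing of their barcodes. Read counts were normalised to the haploid input and turned into Kd by a linear fit to BCL2-family pairs of known affinity, for each replicate. There are six technical replicates.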

Variants are written as CDR1, CDR2 and CDR3 of the heavy chain (limits as in the source). Parent: GFTLNSYGIS, VIYSDGRRTFYGDSVK, GRAAGTFDS. Variants here have at most six changes. Scale: log10 of Kd in nM, estimated from mating counts; low values are strong binders. An entry "nd" has no value in the source: the pair was not observed among the diploids in that replicate. This suggests poor binding but is not conclusive. A sequence measured in both rounds can read differently, since the two assays cover different ranges. The authors averaged sequences with at least three values out of six and counted those with two or fewer as poor binders. Empty control strains, which show no peptide, gave a signal in 1% of pairings with all heavy chain designs; the median was 2.08 and 95% of these signals were weaker than 0.84. No background was subtracted.

The variant GFTLNSYGIS | VIYSDGRRTAYGDSVK | SRAAGTFDS gave nd, nd, nd, nd, nd, 2.01. For GFQLNDYGIS | VIYSDGRRTFYIDKVK | GKAAGTFDS, the assay gave nd, nd, nd, nd, nd, nd. For GFSLNSYGIS | VIYSDGHRTFYGDSVK | GRTAGTFDS, the assay gave 1.10, 1.16, 0.71, 0.27, 1.20, 0.49. The variant GFDLNSYGIS | VIYSDGRRTFYLDSVK | GQVAGTFDS showed 0.96, 0.09, 0.61, 0.28, 0.02, 0.45. The variant GFTLNQYGIS | VIYSDGRRTVYQDSVK | GRAAGFFVS showed nd, nd, nd, nd, nd, nd. With GFTLNSYGIS | VIYADGRRTFYGDSVK | GKTAGTFDV the result was 0.06, 0.07, -0.59, -0.55, -0.17, 0.04. With GFTINSYGIS | VIYSDGRRTFYNGSVK | GKAAGTIDS the result was nd, nd, nd, nd, nd, nd.

For GFELNEYGIS | VIYSDGRRTFYVDSVK | GRTAGTFDS, the assay gave -0.04, 0.01, -0.30, 0.24, -0.07, 0.31. The variant GFNLNEYGIS | VIYSDGRRTFYSDSVK | GRAAGTFDS showed -0.18, 0.13, -0.01, -0.31, -0.18, 0.47. The variant GFWLNDYGIS | VIYSDGRRTFYGDSVK | GQTAGTFDS gave 1.04, 1.40, 1.10, 0.92, 1.13, 1.50. The variant GFTLNDYGIS | VIYSDGRRTFYIDEVK | GNAAGTFDS showed 0.02, 0.04, -0.03, -0.21, -0.23, 0.09. The variant GFTLNEYGIS | VIYSDGRRTFYADSVK | GRMAGTFDS gave -0.29, 0.56, -0.10, -0.14, 0.13, 0.20. The variant GFHLNSYGIS | VIYSDGMRTFYADSVK | GRTAGTFDS showed 0.32, 0.36, 0.23, 0.23, 0.35, 0.33. The variant GFSLNDYGIS | VIYSDGRRTYYGDSVK | GRAAGTFIS showed nd, nd, 4.37, nd, nd, nd.

The variant GFSLNQYGIS | VIYSDGRRTFYGDSVK | GQTAGTFDS gave -0.02, 0.06, -0.10, -0.10, 0.04, 0.28. The variant GFDLNTYGIS | VIYSDGRRTFYGDSVK | GNAAGTFDS gave 0.00, -0.20, 0.02, -0.22, 0.08, -0.16. With GFTLNSYGIS | VIYSDGRRTFYFDSVK | GQLAGTFDS the result was 1.09, 2.31, nd, nd, nd, nd. With GFSLNSYGIS | VIYSDGRRTFYIDDVK | GQAAGTFDS the result was 0.74, 0.61, 0.68, 0.21, 0.27, 0.44. The variant GFDLNSYGIS | VIYSDGRRTFYGDSVK | GNAAGTFDS showed 0.34, 0.18, 0.58, 0.56, 0.37, 0.72. For GFTLNSYGIS | VIYADGRRTFYGDSVK | GEAAGTFDA, the assay gave -0.42, -0.63, -0.36, -0.41, -0.63, -0.47. With GFHLNSYGIT | VIYSDGRRTFYGDSVK | GRAAGTFDS the result was nd, nd, nd, nd, nd, nd.

With GNTLNEYGIS | VIYSDGRRTFYSDSVK | GRCAGTFDS the result was 1.13, 1.36, 2.19, 1.56, 1.14, 0.47. The variant GFTLNEYGIS | VIYSDGRRTFYSDAVK | GRHAGTFDS gave 0.51, 0.23, 0.47, 0.32, 0.81, 1.44. With YFSLNSYGIS | VIYSDGRRTFYGDSVK | GEAAGTFDS the result was nd, nd, nd, nd, nd, nd. The variant GFTLDSYGIS | VIYADGRRTFYGDSVK | GRAAGTFNS gave 0.53, 0.96, -0.26, 0.31, -0.58, 2.47. With GFDLDSYGIS | VIYSMGRRTFYGDFVK | GREAGTFDS the result was nd, nd, nd, nd, nd, nd. With GFTLNSYGIS | VIYSDGRRTFYGDSVK | GQVAGTFDT the result was 1.01, 2.33, 1.32, 0.80, 0.79, 0.82. With GFWLNSYGIS | VIYSDGRRTFYADSVK | GWMAGTFDS the result was 1.32, nd, 1.92, 2.20, nd, nd.

The variant GFTLNMYGIS | VIYSDGKRTFYGDSVK | GRTAGTFDS gave nd, 1.16, 1.75, nd, 0.95, nd. For GFTLNSYGIS | VIYSDGRRTFYGDSVK | GDAAGTFDL, the assay gave -0.16, 0.15, 0.79, -0.20, 0.32, 0.86. With GFTLNSYGIS | VIYSDGRRTFYGDKVK | GRAAGTFCS the result was nd, nd, nd, nd, nd, nd.

Top 4 of the variants detected in all replicates, tightest first:

| CDR-H1 | CDR-H2 | CDR-H3 | replicates, log10 nM |
|---|---|---|---|
| GFTLNSYGIS | VIYADGRRTFYGDSVK | GEAAGTFDA | -0.42, -0.63, -0.36, -0.41, -0.63, -0.47 |
| GFTLNSYGIS | VIYADGRRTFYGDSVK | GKTAGTFDV | 0.06, 0.07, -0.59, -0.55, -0.17, 0.04 |
| GFDLNTYGIS | VIYSDGRRTFYGDSVK | GNAAGTFDS | 0.00, -0.20, 0.02, -0.22, 0.08, -0.16 |
| GFTLNDYGIS | VIYSDGRRTFYIDEVK | GNAAGTFDS | 0.02, 0.04, -0.03, -0.21, -0.23, 0.09 |

From the AlphaSeq antibody data of Li et al. 2023 (doi:10.1038/s41467-023-39022-2), copy in the FLAb collection.